The source of these data is patent US20170128059A1, “METHODS AND APPARATUS FOR PREVENTION OF SURGICAL SITE INFECTIONS” (priority 2015, published 2017).

Data set [1] in a line: serum and wound tissue gentamicin concentration by ELISA after local delivery through the surgical device. Particulars: E-F group. On the technique in general: An ELISA detects its analyte on a solid surface through an enzyme-linked reagent.
The conditions of data set [2]: intravenous injection, 240 mg; cited from earlier work.
For data set [3] the following is noted: bolus intravenous injection of 100 mg, healthy patients; cited from earlier work.

Consider gentamicin, for which the “mean serum gentamicin concentration” value in data set [1] (Time 1) is 0.24 ± 0.11 mg/L; in data set [1] (Time 2) it was 0.10 ± 0.05 mg/L. In addition, in data set [1] (Times 1 and 2), the “wound margin tissue concentration relative to corresponding serum levels” value is reported as 4-6 ×. Besides, the “duration of bloodstream concentration above the toxic threshold” value in data set [2] is “about 40 minutes”. Moreover, the “maximum blood serum concentration” value in data set [3] is reported as “up to 6 mg/L”.
